# Results published in patent US8791267B2, “Biaryl PDE4 inhibitors for treating inflammatory, cardiovascular and CNS disorders” (Decode Genetics EHF, priority 2007, dated 2014).
# Chains of the proteins cited; added tags and fusions are not shown.
# UniProt Q07343, whole entry: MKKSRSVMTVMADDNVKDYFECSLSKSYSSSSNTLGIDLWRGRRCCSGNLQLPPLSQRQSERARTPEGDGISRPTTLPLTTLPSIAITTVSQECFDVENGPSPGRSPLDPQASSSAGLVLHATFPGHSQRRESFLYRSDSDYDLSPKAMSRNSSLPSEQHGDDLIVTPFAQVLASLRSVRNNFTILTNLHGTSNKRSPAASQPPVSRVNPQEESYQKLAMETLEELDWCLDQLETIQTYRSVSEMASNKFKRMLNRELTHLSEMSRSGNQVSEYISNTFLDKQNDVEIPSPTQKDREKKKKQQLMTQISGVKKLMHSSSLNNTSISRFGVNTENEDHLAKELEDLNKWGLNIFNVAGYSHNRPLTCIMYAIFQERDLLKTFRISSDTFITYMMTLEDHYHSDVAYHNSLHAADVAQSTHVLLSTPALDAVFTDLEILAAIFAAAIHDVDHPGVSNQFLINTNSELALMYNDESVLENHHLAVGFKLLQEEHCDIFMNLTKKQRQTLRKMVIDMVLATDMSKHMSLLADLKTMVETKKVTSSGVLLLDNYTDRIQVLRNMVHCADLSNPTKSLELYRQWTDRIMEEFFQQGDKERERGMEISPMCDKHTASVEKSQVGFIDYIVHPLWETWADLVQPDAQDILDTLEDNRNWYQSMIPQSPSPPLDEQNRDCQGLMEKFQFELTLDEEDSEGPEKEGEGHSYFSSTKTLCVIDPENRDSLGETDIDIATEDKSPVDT
# UniProt Q08499, whole entry: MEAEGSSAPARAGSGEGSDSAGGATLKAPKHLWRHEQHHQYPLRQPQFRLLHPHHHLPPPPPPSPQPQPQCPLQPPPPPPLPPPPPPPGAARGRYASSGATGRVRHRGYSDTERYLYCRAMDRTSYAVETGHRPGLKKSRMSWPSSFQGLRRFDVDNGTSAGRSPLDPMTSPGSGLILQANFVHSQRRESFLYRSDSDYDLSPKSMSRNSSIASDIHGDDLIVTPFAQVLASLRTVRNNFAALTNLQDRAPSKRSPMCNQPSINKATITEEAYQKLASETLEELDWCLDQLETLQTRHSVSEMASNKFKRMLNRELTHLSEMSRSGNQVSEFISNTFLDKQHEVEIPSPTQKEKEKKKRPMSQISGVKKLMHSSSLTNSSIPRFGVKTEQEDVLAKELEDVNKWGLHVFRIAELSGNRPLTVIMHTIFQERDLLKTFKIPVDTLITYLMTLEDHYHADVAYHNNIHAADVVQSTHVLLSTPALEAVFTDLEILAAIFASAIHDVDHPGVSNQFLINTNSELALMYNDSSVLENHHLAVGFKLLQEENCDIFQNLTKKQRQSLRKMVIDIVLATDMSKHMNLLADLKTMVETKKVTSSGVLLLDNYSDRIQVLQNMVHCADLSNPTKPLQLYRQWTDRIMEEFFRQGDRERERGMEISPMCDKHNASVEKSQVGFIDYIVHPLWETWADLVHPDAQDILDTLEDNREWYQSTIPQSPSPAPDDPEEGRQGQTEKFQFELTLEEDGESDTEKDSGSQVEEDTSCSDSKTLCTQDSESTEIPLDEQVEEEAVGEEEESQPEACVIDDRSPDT
# How the values were obtained:
# [1] = target: PDE4B (Homo sapiens, UniProt Q07343); test: In-vitro assay for PDE4 enzymes, real-time enzyme-coupled spectrophotometric assay, PDE4B Activity (Table 10); format: biochemical; conditions: read-out: PDE4B Activity, hPDE4B
# [2] = target: PDE4 (Homo sapiens, UniProt Q08499); test: In-vitro assay for PDE4 enzymes, real-time enzyme-coupled spectrophotometric assay (Table 9); format: biochemical; conditions: read-out: hPDE4D, human PDE4D, activity class
SMILES,IC50 [1] [µM],IC50 [2] [µM]
COc1ccc(Cn2cc(Br)cnc2=O)cc1-c1cccc(Cl)c1,5 to 20,5 to 20
COc1ccc(Cc2ccc(NC(N)=O)nc2)c(F)c1-c1cccc(C(C)=O)c1,< 5,< 5
COc1ccc(Cc2ccc[nH]c2=O)c(O)c1-c1cccc([N+](=O)[O-])c1,< 5,< 5
COc1ccc(Cn2cc(-c3ccc(N)cc3)cn2)c(F)c1-c1cccc(Cl)c1,–,< 5
COc1ccc(C(=O)c2ccc(F)cc2)c(OC)c1-c1cccc([N+](=O)[O-])c1,–,20 to 40
COc1ccc(Cn2nc(C)ccc2=O)cc1-c1cccc([N+](=O)[O-])c1,5 to 20,5 to 20
COc1ccc(Cc2ccc(NCC(=O)O)nc2)c(O)c1-c1cccc([N+](=O)[O-])c1,< 5,< 5
COC(=O)c1cc(-c2cc(Cn3cncn3)ccc2OC)ccc1F,5 to 20,< 5
COc1ccc(Cn2cncn2)cc1-c1cccc(C(F)(F)F)c1,5 to 20,< 5
COc1ccc(CNc2ccc(NC(C)=O)cc2)c(F)c1-c1cccc(Cl)c1,–,5 to 20
COc1ccc(=O)n(Cc2ccc(OC)c(-c3cccc([N+](=O)[O-])c3)c2)n1,21 to 40,5 to 20
COc1ccc(Cn2cccc(OC)c2=O)cc1-c1cccc([N+](=O)[O-])c1,< 5,< 5
COc1ccc(Cn2c(=O)oc3ccccc32)cc1-c1cccc([N+](=O)[O-])c1,< 5,< 5
COc1ccc(Cc2ccc(-c3ccc(O)nc3)nc2)c(F)c1-c1cccc(Cl)c1,–,< 5
COc1ccc(Cn2ncccc2=O)cc1-c1cccc([N+](=O)[O-])c1,< 5,< 5
COc1ccc(C(O)c2ccc(F)cc2)c(F)c1-c1cccc([N+](=O)[O-])c1 (stereo not shown),5 to 20,< 5
COC(=O)c1cccc(-c2cc(Cn3cncn3)ccc2OC)c1F,–,< 5
COc1ccc(CSc2ccc(F)cc2)cc1-c1cccc([N+](=O)[O-])c1,–,5 to 20
COc1ccc(Cn2cncn2)cc1-c1ccc(F)c(F)c1,5 to 20,< 5
COc1ccc(Cn2cncn2)cc1-c1cc(F)c(F)c(F)c1,5 to 20,< 5
